What was measured:
S. typhimurium TA 98 = experiment: Ames test, mutagenicity; format: cell-based, Salmonella Typhimurium; settings: −S9; 0.1 µg/plate, positive control
S. typhimurium TA98 = experiment: Ames test, anti-mutagenicity; settings: standard mutagen alone, 0.1 µg/plate, −S9
S. typhimurium TA100 = experiment: Ames test, anti-mutagenicity; settings: standard mutagen alone, 0.1 µg/plate, −S9

NC(=O)C(=Cc1ccc([N+](=O)[O-])o1)c1ccco1 [AF-2, 2-(2-Furyl)-3-(5-nitro-2-furyl) acrylamide, reference compound]
Number of Revertant Colonies (S. typhimurium TA 98): 379 ± 30 | Number of Revertant Colonies (S. typhimurium TA98): 252 ± 12 | Number of Revertant Colonies (S. typhimurium TA100): 396 ± 11

Source: paper PMC11206519, “Multi-Endpoint Toxicological Assessment of Chrysin Loaded Oil-in-Water Emulsion System in Different Biological Models” (Nanomaterials, 2024)
